pIC50: −log10 of the molar value.
Biological target: Substance-K receptor (Homo sapiens, UniProt P21452)
Experiment: Binding affinity to human NK2 receptor by radioligand displacement assay

Sequences of proteins named here, by UniProt entry; tags and fusion partners are left off.
UniProt P21452, whole entry: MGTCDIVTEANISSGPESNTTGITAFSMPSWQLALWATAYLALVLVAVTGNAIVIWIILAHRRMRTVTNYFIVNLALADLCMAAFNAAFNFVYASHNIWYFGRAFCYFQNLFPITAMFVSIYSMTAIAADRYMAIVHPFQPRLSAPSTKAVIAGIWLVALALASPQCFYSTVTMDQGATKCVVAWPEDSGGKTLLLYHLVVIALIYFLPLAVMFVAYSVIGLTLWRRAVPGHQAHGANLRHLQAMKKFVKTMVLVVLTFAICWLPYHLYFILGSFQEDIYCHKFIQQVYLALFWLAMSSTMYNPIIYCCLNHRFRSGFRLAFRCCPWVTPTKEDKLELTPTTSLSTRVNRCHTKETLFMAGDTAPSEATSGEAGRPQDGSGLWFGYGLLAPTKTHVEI

**Q.** How did the pIC50 turn out when `CCCC[C@H](NC(=O)[C@H](CC(C)C)NC(=O)CNC(=O)[C@@H](NC(=O)[C@H](Cc1ccccc1)NC(=O)[C@H](CO)NC(=O)[C@@H](N)CC(=O)O)C(C)C)C(N)=O` was run?
**A.** 8.60

Source: ChEMBL document CHEMBL2390917, “Synthesis and biological evaluation of 2-(5-methyl-4-phenyl-2-oxopyrrolidin-1-yl)-acetamide stereoisomers as novel positive allosteric modulators of sigma-1 receptor” (Bioorg Med Chem, 2013)
